Laboratory results: article PMC7244497 (Scientific Reports, 2020)

Chains of the proteins cited; added tags and fusions are not shown.
UniProt P41143, whole entry: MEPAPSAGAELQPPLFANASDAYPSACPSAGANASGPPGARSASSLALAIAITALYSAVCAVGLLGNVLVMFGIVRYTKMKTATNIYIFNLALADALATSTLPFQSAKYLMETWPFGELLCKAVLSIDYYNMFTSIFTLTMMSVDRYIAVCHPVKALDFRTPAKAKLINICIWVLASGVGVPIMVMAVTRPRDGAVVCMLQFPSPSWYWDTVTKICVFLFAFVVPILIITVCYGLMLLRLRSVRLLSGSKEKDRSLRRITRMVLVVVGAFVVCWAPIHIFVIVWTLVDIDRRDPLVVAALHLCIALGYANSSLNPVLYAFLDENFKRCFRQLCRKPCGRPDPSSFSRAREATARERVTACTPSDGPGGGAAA

What was measured:
HA-hDOP receptor [1] = target: T1, HA-hDOP receptor (Homo sapiens, UniProt P41143)
HA-hDOP receptor [2] = target: T1, HA-hDOP receptor; remark: listed apart in the source
HA-hDOP receptor [3] = target: T1, HA-hDOP receptor; test: cell-based; type: cell-based; set-up: host or cells: AtT20-D16v-F2 (AtT20) cells, stably transfected; details: for Emax: AtT20, read-out: Emax in % of DPDPE

Structure (SMILES)	Heterologous phosphorylation at T361 or S363 (PKC/PKA activation) (HA-hDOP receptor [1])	Antagonist effect on DPDPE-induced phosphorylation at T361 and S363 (HA-hDOP receptor [1])	Antagonist effect on DPDPE-induced receptor internalization (HA-hDOP receptor [2])	Agonist-induced DOP receptor phosphorylation at T361 and S363 (HA-hDOP receptor [1])	Agonist-induced DOP receptor internalization (HA-hDOP receptor [2])	EC50 (HA-hDOP receptor [3])	Emax (HA-hDOP receptor [3])	also measured
C=C[C@@]1(C)CC(=O)[C@]2(O)[C@@]3(C)[C@@H](O)CCC(C)(C)[C@@H]3[C@H](O)[C@H](OC(C)=O)[C@@]2(C)O1 [forskolin]	Neither forskolin nor PMA induced any detectable phosphorylation	–	–	–	–	–	–	–
CCCCCCCCCCCCCC(=O)O[C@@H]1[C@@H](C)[C@@]2(O)[C@@H](C=C(CO)C[C@]3(O)C(=O)C(C)=C[C@@H]23)[C@@H]2C(C)(C)[C@]12OC(C)=O [PMA, phorbol-12-myristat-13-acetat]	Neither forskolin nor PMA induced any detectable phosphorylation	–	–	–	–	–	–	–
Oc1ccc2c3c1O[C@H]1c4oc5ccccc5c4C[C@@]4(O)[C@@H](C2)N(CC2CC2)CC[C@]314 [naltriben]	–	block	block	–	–	–	–	–
CCN(CC)C(=O)c1ccc(C2=CC3(CCNCC3)Oc3cccc(O)c32)cc1 [ADL5859, N,N-diethyl-4-(5-hydroxyspiro[chromene-2,4′-piperidine]-4-yl)benzamide]	–	–	–	Robust phosphorylation	receptor internalization were detectable	57 ± 10.9 nM	84.4%	–
CN1CC[C@]23c4c5ccc(O)c4O[C@H]2[C@@H](O[C@@H]2O[C@H](C(=O)O)[C@@H](O)[C@H](O)[C@H]2O)C=C[C@H]3[C@H]1C5 [M6G, morphine-6-glucuronide]	–	–	–	phosphorylation only at S363	weak receptor internalization	1200 ± 401 nM	54.6%	Emax, GIRK channel activation (HA-hDOP receptor [3]): 13.73 ± 0.86
Oc1ccc2c3c1O[C@H]1c4[nH]c5ccccc5c4C[C@@]4(O)[C@@H](C2)N(CC2CC2)CC[C@]314 [naltrindole]	–	block	block	–	–	–	–	Effect on DPDPE-induced hyperpolarization (HA-hDOP receptor [3]): reversal of the DPDPE-induced hyperpolarization towards baseline level
